{"source": "patent US10261017B2", "about": "“Methods for detecting and categorizing skin sensitizers” (University of Mississippi, priority 2014, dated 2019)", "experiment": "Microplate spectrophotometric method (DCYA assay), fluorescence end-point", "details": "RI = reactivity index; 2 equiv. electrophile, pH 10 buffer", "data": [{"smiles": "O=[N+]([O-])c1ccc(Cl)c([N+](=O)[O-])c1", "note": "[1-Chloro-2,4-dinitrobenzene]", "values": [{"measurement": "DCYA 100-RI", "value": 131.7}]}]}
